Results reported in patent US12595267B2, “Preparation method for amide compound and application thereof in field of medicine” (Shanghai Synergy Pharmaceutical Sciences Co., Ltd., priority 2019, dated 2026).

Protein sequences, listed by entry. Tags and fused reporters are not part of them.
UniProt Q15910, whole entry A677G: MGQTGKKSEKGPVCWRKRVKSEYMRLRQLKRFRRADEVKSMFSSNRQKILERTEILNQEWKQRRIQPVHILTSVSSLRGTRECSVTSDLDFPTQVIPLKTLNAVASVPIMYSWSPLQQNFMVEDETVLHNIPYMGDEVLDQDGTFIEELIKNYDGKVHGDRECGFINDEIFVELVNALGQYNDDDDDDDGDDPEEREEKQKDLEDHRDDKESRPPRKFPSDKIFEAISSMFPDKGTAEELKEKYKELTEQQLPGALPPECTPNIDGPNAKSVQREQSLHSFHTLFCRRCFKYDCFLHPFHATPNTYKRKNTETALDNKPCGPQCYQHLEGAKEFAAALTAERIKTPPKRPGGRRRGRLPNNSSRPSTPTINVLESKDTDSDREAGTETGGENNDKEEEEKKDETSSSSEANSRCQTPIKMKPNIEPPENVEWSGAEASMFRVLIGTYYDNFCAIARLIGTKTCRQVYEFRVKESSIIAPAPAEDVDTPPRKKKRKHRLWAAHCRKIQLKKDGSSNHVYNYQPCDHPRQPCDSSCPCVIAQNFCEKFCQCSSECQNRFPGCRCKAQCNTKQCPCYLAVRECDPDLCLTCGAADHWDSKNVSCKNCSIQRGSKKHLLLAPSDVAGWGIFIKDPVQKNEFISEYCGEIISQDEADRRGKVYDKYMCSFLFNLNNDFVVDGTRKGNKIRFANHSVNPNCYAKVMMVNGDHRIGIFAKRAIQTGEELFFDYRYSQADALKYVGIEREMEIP
UniProt Q15910, whole entry Y641F: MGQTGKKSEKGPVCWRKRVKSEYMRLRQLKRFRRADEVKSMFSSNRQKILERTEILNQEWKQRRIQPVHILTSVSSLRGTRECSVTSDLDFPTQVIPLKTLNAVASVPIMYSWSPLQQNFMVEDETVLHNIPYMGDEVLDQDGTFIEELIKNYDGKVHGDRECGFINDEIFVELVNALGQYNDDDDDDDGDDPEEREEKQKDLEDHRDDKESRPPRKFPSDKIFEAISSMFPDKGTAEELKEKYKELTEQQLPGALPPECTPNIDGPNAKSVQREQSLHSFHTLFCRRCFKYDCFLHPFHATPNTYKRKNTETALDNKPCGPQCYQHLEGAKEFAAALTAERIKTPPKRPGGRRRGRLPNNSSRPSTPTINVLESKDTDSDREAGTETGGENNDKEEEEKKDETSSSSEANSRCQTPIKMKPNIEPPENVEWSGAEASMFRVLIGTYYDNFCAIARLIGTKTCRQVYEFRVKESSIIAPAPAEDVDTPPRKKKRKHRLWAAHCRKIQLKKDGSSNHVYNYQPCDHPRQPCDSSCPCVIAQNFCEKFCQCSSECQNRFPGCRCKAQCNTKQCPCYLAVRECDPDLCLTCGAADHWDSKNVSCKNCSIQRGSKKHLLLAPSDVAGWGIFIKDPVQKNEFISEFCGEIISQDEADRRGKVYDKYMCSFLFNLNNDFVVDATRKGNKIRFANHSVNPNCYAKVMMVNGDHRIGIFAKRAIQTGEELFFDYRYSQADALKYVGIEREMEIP
UniProt Q15910, whole entry Y641N: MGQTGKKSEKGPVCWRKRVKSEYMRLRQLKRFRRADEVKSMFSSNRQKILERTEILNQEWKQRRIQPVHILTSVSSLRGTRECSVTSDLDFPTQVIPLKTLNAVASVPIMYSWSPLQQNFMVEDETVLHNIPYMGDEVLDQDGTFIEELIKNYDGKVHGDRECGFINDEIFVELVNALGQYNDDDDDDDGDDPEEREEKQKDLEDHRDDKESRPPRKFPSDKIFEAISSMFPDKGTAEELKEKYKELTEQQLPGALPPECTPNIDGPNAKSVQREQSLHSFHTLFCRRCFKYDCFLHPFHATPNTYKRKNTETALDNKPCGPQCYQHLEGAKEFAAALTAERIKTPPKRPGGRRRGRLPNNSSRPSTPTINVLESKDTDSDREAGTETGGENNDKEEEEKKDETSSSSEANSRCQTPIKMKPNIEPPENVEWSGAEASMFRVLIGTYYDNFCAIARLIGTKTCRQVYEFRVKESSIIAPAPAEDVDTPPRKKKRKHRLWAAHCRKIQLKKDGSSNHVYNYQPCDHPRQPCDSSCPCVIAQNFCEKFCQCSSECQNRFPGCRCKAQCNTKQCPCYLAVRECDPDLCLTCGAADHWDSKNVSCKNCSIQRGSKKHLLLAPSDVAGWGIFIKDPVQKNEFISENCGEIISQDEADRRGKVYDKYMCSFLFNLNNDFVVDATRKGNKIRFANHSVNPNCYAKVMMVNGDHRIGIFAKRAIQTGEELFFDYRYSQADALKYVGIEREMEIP

Columns and labels:
Mutant EZH2 (A677G) = molecular target: T1, Mutant EZH2 (A677G) (Homo sapiens, UniProt Q15910, A677G); experiment: AlphaLISA assay on mutant PRC2 complex, EZH2 A677G; format: biochemical
T1 construct: purchased BPS 51004

Pfeiffer cells = experiment: Calcein AM proliferation assay, Pfeiffer cells; format: cell-based; conditions: Homo sapiens, day 14 data, Calcein AM staining
Mutant EZH2 (Y641F) = molecular target: T2, Mutant EZH2 (Y641F) (Homo sapiens, UniProt Q15910, Y641F); experiment: AlphaLISA assay on mutant PRC2 complex, EZH2 Y641F; format: biochemical
T2 construct: purchased BPS 51004

Mutant EZH2 (Y641N) = molecular target: T3, Mutant EZH2 (Y641N) (Homo sapiens, UniProt Q15910, Y641N); experiment: AlphaLISA assay on mutant PRC2 complex, EZH2 Y641N; format: biochemical
T3 construct: purchased BPS 51004

CCN(c1cc(-c2ccc3c(c2)CCC3N2CCOCC2)cc(C(=O)NCc2c(C)cc(C)[nH]c2=O)c1C)C1CC(C)OC(C)C1 (centres unmarked) [Compound 13, N-((4,6-dimethyl-2-oxo-1,2-dihydropyridin-3-yl)methyl)-3-((2,6-dimethyltetrahydro-2H-pyran-4-yl)(ethyl)amino)-2-methyl-5-(1-morpholino-2,3-di hydro-1H-inden-5-yl)benzamide]
IC50 (Mutant EZH2 (A677G)): 0.46 nM

CCN(c1cc(-c2ccc(C3(C(=O)O)CCOCC3)cc2)cc(C(=O)NCc2c(C)cc(C)[nH]c2=O)c1C)C1CCOCC1 [Compound 2, 4-(3′-(((4,6-dimethyl-2-carbonyl-1,2-dihydropyridin-3-yl)methyl)carbamoyl)-5′-(ethyl(tetrahydro-2H-pyran-4-yl)amino)-4′-methyl-[1,1′-biphenyl]-4-yl)tetrahydro-2H-pyran-4-carboxylic Acid]
IC50 (Pfeiffer cells): 0.75 nM

CCN(c1cc(-c2cc3c(cc2F)C(N2CCOCC2)CC3)c(F)c(C(=O)NCc2c(C)cc(C)[nH]c2=O)c1C)C1CCOCC1 (centres unmarked) [Compound 28]
IC50 (Mutant EZH2 (Y641F)): 0.75 nM

CCN(c1cc(-c2cc3c(cc2F)C(N2CCOCC2)CC3)cc(C(=O)NCc2c(C)cc(C)[nH]c2=O)c1C)C1CCOCC1 (centres unmarked) [Compound 24]
IC50 (Mutant EZH2 (Y641N)): 0.46 nM
IC50 (Mutant EZH2 (Y641F)): 0.75 nM
